Molecular target: GLP (SET domain) (Homo sapiens, UniProt Q9H9B1)
Test: Methylation inhibition assay, GLP SET domain, H3 peptide
Assay type: biochemical

Protein sequences, listed by entry. Tags and fused reporters are not part of them. Residues count along the entry.
UniProt Q9H9B1, 1126-1243 limits assumed: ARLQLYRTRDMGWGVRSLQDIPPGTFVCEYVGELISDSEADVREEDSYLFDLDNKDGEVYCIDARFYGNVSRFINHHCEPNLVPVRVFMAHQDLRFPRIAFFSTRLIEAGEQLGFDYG

In the case of `COc1cc2nc(N3CCCN(C)CC3)nc(NC3CCN(Cc4ccccc4)CC3)c2cc1OC` [BIX-01294], the IC50 is reported as 0.25 µM.

From paper PMC3280428 (Journal of Molecular Biology, 2011)
